From patent publication US7348318B2, “α-Amino-N-(diaminophosphinyl)lactam derivatives” (priority 2002, dated 2008)

The chains behind the UniProt entries cited, without tags or fusion partners. Where a name states a change or a piece, a line headed by the entry shows the natural chain unless it says otherwise.
UniProt P14740: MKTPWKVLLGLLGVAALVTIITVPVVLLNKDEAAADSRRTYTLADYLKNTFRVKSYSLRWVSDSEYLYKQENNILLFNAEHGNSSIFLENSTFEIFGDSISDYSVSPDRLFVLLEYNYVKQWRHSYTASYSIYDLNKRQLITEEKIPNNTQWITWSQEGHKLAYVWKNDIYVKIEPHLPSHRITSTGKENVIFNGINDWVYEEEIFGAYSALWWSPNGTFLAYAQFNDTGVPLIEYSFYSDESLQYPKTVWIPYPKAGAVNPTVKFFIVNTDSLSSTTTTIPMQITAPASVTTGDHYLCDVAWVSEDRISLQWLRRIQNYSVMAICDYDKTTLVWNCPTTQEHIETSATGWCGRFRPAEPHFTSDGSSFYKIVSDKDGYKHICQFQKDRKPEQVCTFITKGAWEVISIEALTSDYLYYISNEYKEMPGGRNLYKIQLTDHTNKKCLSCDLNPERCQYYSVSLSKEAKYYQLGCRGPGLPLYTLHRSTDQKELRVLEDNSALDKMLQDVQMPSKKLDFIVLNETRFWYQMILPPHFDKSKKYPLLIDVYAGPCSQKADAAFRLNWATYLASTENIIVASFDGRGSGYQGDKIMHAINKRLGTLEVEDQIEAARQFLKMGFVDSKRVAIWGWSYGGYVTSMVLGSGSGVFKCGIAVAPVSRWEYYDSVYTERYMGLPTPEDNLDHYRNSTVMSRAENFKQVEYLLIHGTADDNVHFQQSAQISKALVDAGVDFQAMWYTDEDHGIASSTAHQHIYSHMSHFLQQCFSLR

Molecular target: dipeptidyl peptidase IV (Rattus norvegicus, UniProt P14740)
Assay: Measurement of dipeptidyl peptidase IV activity
Format: biochemical
Conditions: read-out: Dipeptidyl peptidase IV 50% inhibition activity value; enzyme partially purified from rat kidney homogenate; glycyl·prolyl·β-naphthylamide; pH 7.2, 37° C., 1 hour

N[C@H]1CCCN(P(N)(=O)NC(=O)Nc2ccccc2)C1=O (stereo partly shown)
IC50: 112 nM
